The assay concerns the target human ACC2 (Homo sapiens, UniProt O00763). As to the kind of experiment: ACC2 spectrophotometric 384 well assay (NADH-linked, coupled lactate dehydrogenase/pyruvate kinase). The conditions noted are these: hACC2 construct lacking the 128 N-terminal amino acids; 25° C., 340 nm, 15 minutes. As for the experimental part:
Spectrophotometric 384 Well Assay
Malonyl CoA formation by acetyl CoA carboxylases is stoichometrically linked to the consumption of ATP. ACC2 activity is measured in a NADH-linked kinetic method measuring ADP generated during the ACC reaction using a coupled lactate dehydrogenase/pyruvate kinase reaction.
For biological testing, a human ACC2 construct which lacks the 128 amino acids at the N-terminus for increased solubility (nt 385-6966 in Genbank entry AJ575592) is cloned. The protein is then expressed in insect cells using a baculoviral expression system. Protein purification is performed by anion exchange. All compounds are dissolved in dimethyl sulfoxide (DMSO) to a concentration of 10 mM.
Assay reactions are then carried out in 384-well plates, with hACC2 in an appropriate dilution and at final assay concentrations (f.c.) of 100 mM Tris (pH 7.5), 10 mM trisodium citrate, 25 mM KHCO3, 10 mM MgCl2, 0.5 mg/ml BSA, 3.75 mM reduced L-glutathione, 15 U/ml lactate dehydrogenase, 0.5 mM phosphoenolpyruvate, 15 U/ml pyruvate kinase, compounds at different concentrations at final DMSO concentrations of 1%.
The enzymatic reaction is then started by addition of a mixture of NADH, acetyl Coenzyme A (both […].) and ATP (500 uM f.c.). The decrease of the optical density (slope S) is then determined at 25° C. at a wavelength of 340 nm over 15 minutes in a spectrophotometric reader. […]

Amino acid sequences for entries named in this document (tags omitted). Residues count along the entry.
UniProt O00763, 129-2458 limits assumed: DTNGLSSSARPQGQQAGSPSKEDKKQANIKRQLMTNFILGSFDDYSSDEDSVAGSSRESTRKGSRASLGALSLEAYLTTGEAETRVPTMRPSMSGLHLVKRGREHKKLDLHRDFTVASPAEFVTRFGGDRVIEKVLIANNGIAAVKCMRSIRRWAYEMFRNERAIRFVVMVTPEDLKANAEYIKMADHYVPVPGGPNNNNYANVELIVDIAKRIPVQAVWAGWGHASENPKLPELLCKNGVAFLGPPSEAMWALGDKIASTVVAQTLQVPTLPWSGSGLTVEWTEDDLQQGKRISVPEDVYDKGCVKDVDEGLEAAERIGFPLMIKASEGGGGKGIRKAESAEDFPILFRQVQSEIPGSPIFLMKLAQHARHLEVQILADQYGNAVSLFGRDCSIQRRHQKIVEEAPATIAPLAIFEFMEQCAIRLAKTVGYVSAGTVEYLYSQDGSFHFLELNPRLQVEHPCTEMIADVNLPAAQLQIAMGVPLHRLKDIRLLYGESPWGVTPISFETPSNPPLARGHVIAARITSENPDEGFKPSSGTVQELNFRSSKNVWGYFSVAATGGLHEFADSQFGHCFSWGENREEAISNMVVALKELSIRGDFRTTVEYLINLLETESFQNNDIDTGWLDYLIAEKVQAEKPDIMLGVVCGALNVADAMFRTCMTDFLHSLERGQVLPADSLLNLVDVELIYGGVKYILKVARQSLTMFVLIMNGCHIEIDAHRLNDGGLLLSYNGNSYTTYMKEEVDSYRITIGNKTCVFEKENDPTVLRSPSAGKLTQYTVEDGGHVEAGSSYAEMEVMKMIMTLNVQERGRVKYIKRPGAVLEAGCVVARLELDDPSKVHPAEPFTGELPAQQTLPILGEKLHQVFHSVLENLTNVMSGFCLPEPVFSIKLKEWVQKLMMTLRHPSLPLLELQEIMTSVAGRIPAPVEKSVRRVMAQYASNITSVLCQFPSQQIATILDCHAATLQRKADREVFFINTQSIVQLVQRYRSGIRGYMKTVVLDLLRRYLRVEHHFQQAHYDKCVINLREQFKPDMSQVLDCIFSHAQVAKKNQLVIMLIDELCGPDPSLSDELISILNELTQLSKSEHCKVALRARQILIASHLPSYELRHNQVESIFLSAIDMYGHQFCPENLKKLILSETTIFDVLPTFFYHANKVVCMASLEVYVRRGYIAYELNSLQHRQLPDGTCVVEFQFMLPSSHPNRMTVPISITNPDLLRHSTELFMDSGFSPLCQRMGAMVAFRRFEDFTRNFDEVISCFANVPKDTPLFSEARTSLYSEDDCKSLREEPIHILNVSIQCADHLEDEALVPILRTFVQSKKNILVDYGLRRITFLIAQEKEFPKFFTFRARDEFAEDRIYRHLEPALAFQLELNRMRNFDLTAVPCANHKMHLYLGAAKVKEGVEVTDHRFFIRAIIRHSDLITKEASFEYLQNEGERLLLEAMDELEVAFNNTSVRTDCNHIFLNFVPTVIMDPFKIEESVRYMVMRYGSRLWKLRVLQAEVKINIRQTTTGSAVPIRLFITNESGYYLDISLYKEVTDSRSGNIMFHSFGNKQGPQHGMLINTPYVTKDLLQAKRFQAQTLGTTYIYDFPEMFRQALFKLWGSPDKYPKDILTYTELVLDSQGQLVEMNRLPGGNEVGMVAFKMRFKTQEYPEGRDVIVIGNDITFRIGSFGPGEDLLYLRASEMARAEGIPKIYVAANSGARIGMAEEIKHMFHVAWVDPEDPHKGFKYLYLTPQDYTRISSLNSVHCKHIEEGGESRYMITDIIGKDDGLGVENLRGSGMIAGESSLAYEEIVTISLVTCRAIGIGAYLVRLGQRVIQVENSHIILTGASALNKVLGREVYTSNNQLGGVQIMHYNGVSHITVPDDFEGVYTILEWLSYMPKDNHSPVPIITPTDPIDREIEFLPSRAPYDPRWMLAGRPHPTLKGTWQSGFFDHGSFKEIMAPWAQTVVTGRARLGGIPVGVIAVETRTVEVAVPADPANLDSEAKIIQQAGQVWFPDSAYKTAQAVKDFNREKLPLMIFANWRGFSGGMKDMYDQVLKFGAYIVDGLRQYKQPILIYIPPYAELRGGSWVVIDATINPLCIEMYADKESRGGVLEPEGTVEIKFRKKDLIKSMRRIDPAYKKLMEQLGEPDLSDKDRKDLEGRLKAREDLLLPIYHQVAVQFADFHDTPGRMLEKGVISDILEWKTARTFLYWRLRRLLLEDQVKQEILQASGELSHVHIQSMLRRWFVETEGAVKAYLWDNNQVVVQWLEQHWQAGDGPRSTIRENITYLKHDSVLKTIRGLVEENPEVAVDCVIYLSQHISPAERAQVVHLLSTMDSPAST

As a reminder, the IC50 is the concentration that gives 50% inhibition. Read a high IC50 as weaker potency in that assay. With `CCNC(=O)C(C)c1ccc(C2CCN(c3ccc(OCC)cc3OC)CC2)cc1` (stereo not shown), the IC50 came to 590 nM.

For the origin of these results see patent US8759528B2, “Piperidine derivatives, pharmaceutical compositions and uses thereof” (Boehringer Ingelheim International GmbH, priority 2011, dated 2014).
